From patent publication US20260216170A1, “TETRAHYDROISOQUINOLINE HETEROBIFUNCTIONAL BCL-XL DEGRADERS” (Treeline Biosciences, Inc., priority 2023, published 2026) come the findings set out here.

Sequences of proteins named here, by UniProt entry; tags and fusion partners are left off.
UniProt Q07817, whole entry: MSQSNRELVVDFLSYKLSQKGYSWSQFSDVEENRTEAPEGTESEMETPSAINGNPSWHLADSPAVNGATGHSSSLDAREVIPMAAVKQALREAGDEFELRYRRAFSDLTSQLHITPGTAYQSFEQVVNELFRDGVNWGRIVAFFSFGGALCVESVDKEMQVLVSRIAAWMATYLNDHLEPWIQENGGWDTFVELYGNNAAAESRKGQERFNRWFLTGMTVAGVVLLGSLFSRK

SMILES strings stand for the structures.

The target in the assay is Human BCL-XL protein (N-terminal HiBiT tagged BCL-XL expressed in HT1080 cells) (Homo sapiens, UniProt Q07817). Briefly: HiBiT Based Degradation Assay. Conditions: 24 hours incubation. The text has this:
HiBiT Based Degradation Assay
Human BCL-XL protein coding open reading frame fused with N-terminal HiBiT coding sequence (N-HiBiT-BCL-XL) was synthesized from Integrated DNA Technologies (IDT). Next, N-HiBiT-BCL-XL sequence was cloned into pLV-UBC-PGK-Puro, a lentivirus plasmid purchased from Vectorbuilder, to generate pLV-UBC-N-HiBiT-BCL-XL-PGK-puro. Lentiviral particles were generated from Lenti-X™ 293T cells (Clontech) by co-transfection of pLV-UBC-N-HiBiT-BCL-XL-PGK-puro plasmids and lentiviral packaging plasmid mix (Cellecta). HT-1080 [HT1080](ATCC CCL-121™) cells were infected with the lentivirus, and HT1080 cells stably integrated with the lentiviral vector were established by incubation with 1 μg/mL puromycin (Thermofisher). HT1080 cells expressing N-terminal HiBiT tagged BCL-XL were dispensed into 384-well plates pre-spotted with compounds at varying concentrations. Three thousand cells were seeded into each well in 40 μL of RPMI 1640 media. After 24 hours of incubation at 37° C. with 5% CO2, 30 μL of the NANO-GLO® HiBiT Lytic Detection System working solution (Promega) was added to each well and incubated at room temperature for 30 min. After incubation, luminescence was read on a PHERAstar FSX Plate Reader (BMG). BCL-XL degradation at each indicated concentration was normalized with DMSO control. The BCL-XL degradation curves were plotted using a four-parameter logistic model. […]
Background: With HiBiT, luminescence reflects the tagged protein that the partner subunit can reach.

As for `Cc1c(OCCC[C@H]2CCN(CC(=O)Nc3ccc4c(C5CCC(=O)NC5=O)nn(C)c4c3)[C@@H](C)C2)cccc1-c1ccc(N2CCc3ccnc(C(=O)Nc4nc5ccccc5s4)c3C2)nc1C(=O)O` (some centres unmarked), the “Ymin (24 h)” value (bottom of BCL-XL degradation curve (remaining HiBiT-BCL-XL signal vs DMSO control), HT1080 cells) is “B (30% ≤ Ymin < 50%)”. The 50% effective concentration (EC50) (read-out: EC50 (24 h), BCL-XL degradation, HT1080 cells expressing N-HiBiT-BCL-XL, normalized with DMSO control, geometric mean for multiple data points) fell in the range of 10 to 100 nM.

Broadly, the EC50 is the concentration at which the effect is half-maximal.
